Ends that are not written are not given here.
Test system: influenza A/Puerto Rico/8/34 (H1N1)
Assay type: cell-based, influenza A virus

With GLFGAIAGFIKNGWKGMIKG-NH2 [HA-FP-1] the “antiviral activity from pre-incubation compared with post infection” value was “much more potent”.

Reference: PMC4575187 (PLoS ONE, 2015)
